AlphaSeq binding of Ab-14 heavy chain variants to a spike HR2 peptide

Target: peptide PDVDLGDISGINAS, taken from heptad repeat 2 (HR2) of SARS-CoV-2 spike.

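The starting antibody came from a phage panning campaign against this peptide. The variants were designed computationally from a first round of random CDR variants and then made and measured. Several design methods are mixed in this list. AlphaSeq pools MATa yeast showing the antibodies with MATalpha yeast showing the peptide. Mating (16 h, 30 °C) was followed by selection of diploids and sequencing of their barcodes. Scores were corrected for input abundance and mapped to Kd with protein pairs of known affinity run in the same pool. The assay was run in six technical replicates.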

The variants keep the light chain, the linker and the frameworks of Ab-14 (scFv order VH, a (GGGGS)3 linker, VL).
VH: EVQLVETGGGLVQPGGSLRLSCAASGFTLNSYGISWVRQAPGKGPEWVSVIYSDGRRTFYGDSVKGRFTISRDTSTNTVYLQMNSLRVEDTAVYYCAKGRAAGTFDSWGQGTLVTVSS
VL: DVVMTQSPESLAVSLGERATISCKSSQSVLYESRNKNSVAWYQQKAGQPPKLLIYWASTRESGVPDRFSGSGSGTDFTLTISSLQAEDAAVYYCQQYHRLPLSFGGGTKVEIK

Each variant is given by its three heavy chain CDRs, as the data file delimits them; those of the parent are GFTLNSYGIS, VIYSDGRRTFYGDSVK, GRAAGTFDS. Variants here have more than six changes. Scale: log10 of Kd in nM, estimated from mating counts; low values are strong binders. A mean of the replicates is given; it leaves out those without a signal. An entry "nd" has no value in the source: the pair was not observed among the diploids in any replicate. This suggests poor binding but is not conclusive. The range of this assay differs from that of the first round, and the authors advise against merging the two. The authors averaged sequences with at least three values out of six and counted those with two or fewer as poor binders. Three control strains display no target. For all heavy chain designs, 1% of the pairings with them gave a signal, with a median of 2.08 and one signal in twenty below 0.84, so weak values seen in few replicates may be background.

* GFNLDEYGIS | VIYADGRRTFYQDSVK | GEGAGTFDV = -0.03 (6 of 6 replicates)
* GFDLNEYGIS | VIYADGMRTFYTDSVK | GANAGTFDV = -0.50 (6 of 6 replicates)
* GMGLSEYGIS | VIYADGMRTSYDNSVK | GALAGTFDE = 0.61 (6 of 6 replicates)
* GFDLNEYGIS | VIYADGKRTAYTDSVK | GNVAGTFDV = -0.46 (6 of 6 replicates)
* GFDLNEYGIS | VIYADGRRTFYSDSVK | GENGGTFDS = 0.64 (6 of 6 replicates)
* GFDLNEYGIS | VIYADGRRTMYADSVK | GQLAGTFDV = -0.24 (6 of 6 replicates)
* GFDLNEYGIS | VIYADGRRTFYADSVK | GNEAGTFNV = -0.56 (6 of 6 replicates)
* GYSIDEYGIS | VIYADGQRTAYQNAVK | GEQAGIMMY = 1.85 (5 of 6 replicates)
* GFDLDSYGIS | VIYADGRRKAYHDSVK | GTNGSVSFV = nd (0 of 6 replicates)
* GFDLDEYGIS | VIYADGSRKAYADSVK | GNVAGTFDV = -0.05 (4 of 6 replicates)
* GNDLNEYGIS | VIYADGSRTSYIEKVK | GLVGGMLIV = nd (0 of 6 replicates)
* GFDLEEYGIS | VIYADGQRTAYADSVK | GNVAGTFDV = -0.27 (6 of 6 replicates)
* GFDLDEYGIS | VIYADGKRTAYADSVK | GEVAGTFDT = -0.23 (6 of 6 replicates)
* GFDLNEYGIS | VIYADGMRTFYKDSVK | GEAAGTFDQ = -0.63 (5 of 6 replicates)
* GFDLNEYGIS | VIYADGMRTAYTDDVK | GNVAGTFDQ = -0.35 (6 of 6 replicates)
* GFDLNEYGIS | VIYADGKRTAYADSVK | GANAGTFDV = -0.51 (6 of 6 replicates)
* GFDIQEYGIS | VIYADGMRVAYTNSVK | GTQSGSNIE = nd (0 of 6 replicates)
* GKTLDEYGIS | VIYADGMRSMYADSVK | GGIDGWTFI = nd (0 of 6 replicates)
* GFQIDEYGIS | VIYADGDRMSYDNAVK | GQISGHFDM = nd (0 of 6 replicates)
* GFDLNEYGIS | VIYADGRRTAYIDSVK | GNVAGTFDA = -0.49 (6 of 6 replicates)
* GFDLNEYGIS | VIYADGRRTFYADSVK | GNTAGTFSS = -0.56 (6 of 6 replicates)
* GNDIDEYGIS | VIYADGRRTAYDEAVK | GEIAGSFFH = nd (0 of 6 replicates)
* GNDINEYGIS | VIFADGMRTAYLNDVK | GQMAGLFIM = nd (0 of 6 replicates)
* GEDLNEYGVS | VIYADGIRSTYADKVK | GKHGAAFFV = nd (0 of 6 replicates)
* GFDLNEYGIS | VIYADGMRTAYSDSVK | GENAGTFDV = -0.68 (6 of 6 replicates)
* GFDLDEYGIS | VIYADGRRTFYADSVK | GENAGTFDT = -0.13 (6 of 6 replicates)
* GFDLNEYGIS | VIYADGRRTFYQDSVK | GTNGGTFDV = 0.33 (6 of 6 replicates)
* GFDLEDYGIS | VIYADGKRKAYAQKFK | GRIGGTFGD = 0.27 (6 of 6 replicates)
* GFDLNEYGIS | VIYADGMRTQYADDVK | GENAGTFDV = -0.25 (6 of 6 replicates)
* GFDLDEYGIS | VIYADGRRTFYADSVK | GEVAGTFTS = -0.25 (6 of 6 replicates)
* GFDLDKEGIS | VIYADGIRTAYQDSVK | GQNVATFNV = nd (0 of 6 replicates)
* GFELDEYGIS | VIYADGRRTFYADSVK | GEVAGTFDV = -0.01 (5 of 6 replicates)
* GFDLNEYGIS | VIYADGKRTFYTDSVK | GEVAGTFDQ = 0.00 (6 of 6 replicates)
* GFNLNEYGIS | VIYADGQRTFYADSVK | GEVAGTFDV = 0.25 (6 of 6 replicates)
* GFDLNEYGIS | VIYADGQRKAYADSVK | GNVAGTFDT = -0.76 (6 of 6 replicates)
* GFDLESYGIS | VIYADGVRTAYADSVK | GNVAGTFDV = -0.76 (6 of 6 replicates)
* GFDLNEYGIS | VIYADGKRTFYADSVK | GESAGTFDQ = -0.66 (6 of 6 replicates)
* GFNLNEVGIS | VIYADGLRSAYVDAVK | GGVVDVDFV = nd (0 of 6 replicates)
* GFDLNEYGIS | VIYADGRRTFYIDSVK | GTNGGTFDV = -0.27 (6 of 6 replicates)
* GFDLNEYGIS | VIYADGSRTFYSDSVK | GNQAGFFDV = nd (0 of 6 replicates)
* GFQLDEYGIS | VIYADGRRTFYADSVK | GNVAGTFDV = -0.56 (6 of 6 replicates)
* GFDLNEYGIS | VIYADGQRTAYTDSVK | GANAGTFDQ = -0.05 (6 of 6 replicates)
* GFDLDEYGIS | VIYADGSRTAYADSVK | GENAGTFDQ = 0.12 (6 of 6 replicates)
* GFSLEDYGIS | VIYADGRRTAYVNAVK | GTWGATILG = nd (0 of 6 replicates)

A selection of 5 entries from above:

- GFDIQEYGIS | VIYADGMRVAYTNSVK | GTQSGSNIE -> nd (0 of 6 replicates)
- GFDLNEYGIS | VIYADGRRTFYQDSVK | GTNGGTFDV -> 0.33 (6 of 6 replicates)
- GFDLNEYGIS | VIYADGQRKAYADSVK | GNVAGTFDT -> -0.76 (6 of 6 replicates)
- GFDLNEYGIS | VIYADGRRTMYADSVK | GQLAGTFDV -> -0.24 (6 of 6 replicates)
- GFDLNEYGIS | VIYADGRRTAYIDSVK | GNVAGTFDA -> -0.49 (6 of 6 replicates)

Reference: Li et al. 2023, doi:10.1038/s41467-023-39022-2. File: FLAb, binding data.